Measured values: the supplement of paper PMC11403291
± gives the standard deviation of the averaged measurements.

Sequences of proteins named here, by UniProt entry; tags and fusion partners are left off. A change or cut given only in a name is not applied to a line headed by its entry.
UniProt P06493, whole entry, looked up: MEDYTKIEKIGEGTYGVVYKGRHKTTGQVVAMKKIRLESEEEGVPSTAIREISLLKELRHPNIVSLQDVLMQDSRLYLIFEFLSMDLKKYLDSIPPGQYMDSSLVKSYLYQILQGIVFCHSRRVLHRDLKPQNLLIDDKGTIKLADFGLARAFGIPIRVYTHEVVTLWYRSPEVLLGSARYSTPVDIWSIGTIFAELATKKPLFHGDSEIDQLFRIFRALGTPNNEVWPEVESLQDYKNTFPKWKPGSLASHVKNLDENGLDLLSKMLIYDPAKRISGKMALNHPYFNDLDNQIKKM
UniProt O96013: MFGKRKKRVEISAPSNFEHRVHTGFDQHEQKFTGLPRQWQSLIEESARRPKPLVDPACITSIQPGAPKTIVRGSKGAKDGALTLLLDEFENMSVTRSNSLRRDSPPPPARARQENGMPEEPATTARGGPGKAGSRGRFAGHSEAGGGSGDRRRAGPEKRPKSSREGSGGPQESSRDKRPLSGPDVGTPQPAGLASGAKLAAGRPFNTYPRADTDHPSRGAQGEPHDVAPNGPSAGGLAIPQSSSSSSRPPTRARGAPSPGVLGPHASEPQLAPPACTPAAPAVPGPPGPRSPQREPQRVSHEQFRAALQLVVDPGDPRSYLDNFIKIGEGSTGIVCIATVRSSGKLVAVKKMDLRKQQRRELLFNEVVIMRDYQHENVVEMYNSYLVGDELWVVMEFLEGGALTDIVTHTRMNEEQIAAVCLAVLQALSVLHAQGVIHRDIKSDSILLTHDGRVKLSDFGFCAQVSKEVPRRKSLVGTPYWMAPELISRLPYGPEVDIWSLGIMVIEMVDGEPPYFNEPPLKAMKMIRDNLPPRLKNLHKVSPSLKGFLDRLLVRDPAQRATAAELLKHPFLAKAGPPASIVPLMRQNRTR
UniProt Q00535, whole entry, looked up: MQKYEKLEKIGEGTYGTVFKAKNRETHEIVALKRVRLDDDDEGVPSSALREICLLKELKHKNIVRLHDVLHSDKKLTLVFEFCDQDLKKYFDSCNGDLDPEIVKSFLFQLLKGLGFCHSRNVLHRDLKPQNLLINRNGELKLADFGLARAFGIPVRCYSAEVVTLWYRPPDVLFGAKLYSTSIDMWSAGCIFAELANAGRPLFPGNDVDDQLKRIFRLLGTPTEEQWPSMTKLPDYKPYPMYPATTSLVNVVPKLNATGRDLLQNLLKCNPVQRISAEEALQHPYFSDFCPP
UniProt Q9UHD2: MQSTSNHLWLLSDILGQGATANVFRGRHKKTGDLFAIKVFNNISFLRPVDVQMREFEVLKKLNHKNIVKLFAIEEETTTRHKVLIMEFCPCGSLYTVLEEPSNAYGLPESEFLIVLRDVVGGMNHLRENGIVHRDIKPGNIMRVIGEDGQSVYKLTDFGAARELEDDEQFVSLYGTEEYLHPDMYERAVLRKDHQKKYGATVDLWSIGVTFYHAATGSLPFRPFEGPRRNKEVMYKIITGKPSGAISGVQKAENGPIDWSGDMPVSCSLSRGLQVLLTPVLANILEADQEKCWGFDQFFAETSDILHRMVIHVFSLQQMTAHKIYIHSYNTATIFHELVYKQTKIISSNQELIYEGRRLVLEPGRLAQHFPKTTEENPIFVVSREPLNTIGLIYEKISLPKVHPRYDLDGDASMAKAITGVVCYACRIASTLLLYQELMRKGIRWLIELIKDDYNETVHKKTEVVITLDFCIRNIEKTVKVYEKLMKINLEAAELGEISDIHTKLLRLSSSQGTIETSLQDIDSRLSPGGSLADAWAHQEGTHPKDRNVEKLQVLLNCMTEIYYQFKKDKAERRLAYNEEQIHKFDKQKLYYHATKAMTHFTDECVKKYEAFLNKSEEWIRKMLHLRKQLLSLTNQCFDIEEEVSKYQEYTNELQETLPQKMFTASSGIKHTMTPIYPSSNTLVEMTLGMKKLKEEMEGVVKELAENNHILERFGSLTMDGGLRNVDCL
UniProt O14578, whole entry: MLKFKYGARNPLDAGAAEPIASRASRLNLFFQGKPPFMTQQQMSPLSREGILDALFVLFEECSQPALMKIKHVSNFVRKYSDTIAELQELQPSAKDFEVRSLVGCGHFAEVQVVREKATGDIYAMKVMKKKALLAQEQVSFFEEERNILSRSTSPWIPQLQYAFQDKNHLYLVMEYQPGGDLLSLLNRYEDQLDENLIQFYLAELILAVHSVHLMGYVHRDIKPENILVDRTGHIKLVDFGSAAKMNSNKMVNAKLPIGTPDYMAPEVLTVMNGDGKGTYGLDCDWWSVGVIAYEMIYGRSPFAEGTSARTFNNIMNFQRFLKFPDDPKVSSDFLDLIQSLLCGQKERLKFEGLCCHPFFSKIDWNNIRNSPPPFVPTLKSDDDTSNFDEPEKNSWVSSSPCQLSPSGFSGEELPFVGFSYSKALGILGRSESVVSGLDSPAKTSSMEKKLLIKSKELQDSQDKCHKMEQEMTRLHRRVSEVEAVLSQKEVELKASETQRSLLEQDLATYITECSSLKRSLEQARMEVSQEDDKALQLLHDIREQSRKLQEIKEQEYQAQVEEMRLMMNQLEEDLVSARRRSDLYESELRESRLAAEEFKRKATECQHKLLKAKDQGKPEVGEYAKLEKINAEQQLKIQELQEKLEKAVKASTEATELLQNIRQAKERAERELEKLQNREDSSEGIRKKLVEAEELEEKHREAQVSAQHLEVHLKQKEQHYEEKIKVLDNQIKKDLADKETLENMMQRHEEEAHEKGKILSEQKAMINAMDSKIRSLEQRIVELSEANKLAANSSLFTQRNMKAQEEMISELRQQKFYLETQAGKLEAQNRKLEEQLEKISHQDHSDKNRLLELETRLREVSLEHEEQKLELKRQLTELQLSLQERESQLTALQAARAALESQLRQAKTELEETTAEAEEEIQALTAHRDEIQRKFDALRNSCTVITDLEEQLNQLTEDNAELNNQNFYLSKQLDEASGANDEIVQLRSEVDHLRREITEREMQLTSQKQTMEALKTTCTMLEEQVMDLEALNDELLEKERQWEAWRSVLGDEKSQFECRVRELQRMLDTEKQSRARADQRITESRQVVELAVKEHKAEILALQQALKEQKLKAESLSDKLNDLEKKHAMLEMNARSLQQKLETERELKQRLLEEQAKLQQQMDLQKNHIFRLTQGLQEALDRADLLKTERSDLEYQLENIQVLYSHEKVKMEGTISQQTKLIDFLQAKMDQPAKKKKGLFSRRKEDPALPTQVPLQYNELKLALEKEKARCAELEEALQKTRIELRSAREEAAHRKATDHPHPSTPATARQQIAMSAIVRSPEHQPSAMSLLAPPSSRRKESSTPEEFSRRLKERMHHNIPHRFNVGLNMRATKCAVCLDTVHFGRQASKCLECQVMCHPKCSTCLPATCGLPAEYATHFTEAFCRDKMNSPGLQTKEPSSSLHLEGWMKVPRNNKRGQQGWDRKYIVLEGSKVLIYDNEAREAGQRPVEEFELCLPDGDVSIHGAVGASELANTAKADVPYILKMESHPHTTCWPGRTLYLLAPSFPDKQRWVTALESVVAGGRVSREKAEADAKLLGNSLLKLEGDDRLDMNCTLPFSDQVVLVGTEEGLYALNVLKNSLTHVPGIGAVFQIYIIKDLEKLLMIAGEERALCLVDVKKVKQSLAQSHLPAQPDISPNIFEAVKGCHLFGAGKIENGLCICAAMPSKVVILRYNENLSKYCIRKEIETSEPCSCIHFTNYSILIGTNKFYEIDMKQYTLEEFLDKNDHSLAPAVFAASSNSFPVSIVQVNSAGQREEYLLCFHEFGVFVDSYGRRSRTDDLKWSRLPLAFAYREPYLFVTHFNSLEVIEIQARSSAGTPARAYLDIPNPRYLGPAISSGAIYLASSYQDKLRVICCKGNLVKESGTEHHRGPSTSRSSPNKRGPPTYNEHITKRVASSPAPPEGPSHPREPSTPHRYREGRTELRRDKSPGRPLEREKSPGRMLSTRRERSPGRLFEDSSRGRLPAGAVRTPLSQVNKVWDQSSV
UniProt O43683: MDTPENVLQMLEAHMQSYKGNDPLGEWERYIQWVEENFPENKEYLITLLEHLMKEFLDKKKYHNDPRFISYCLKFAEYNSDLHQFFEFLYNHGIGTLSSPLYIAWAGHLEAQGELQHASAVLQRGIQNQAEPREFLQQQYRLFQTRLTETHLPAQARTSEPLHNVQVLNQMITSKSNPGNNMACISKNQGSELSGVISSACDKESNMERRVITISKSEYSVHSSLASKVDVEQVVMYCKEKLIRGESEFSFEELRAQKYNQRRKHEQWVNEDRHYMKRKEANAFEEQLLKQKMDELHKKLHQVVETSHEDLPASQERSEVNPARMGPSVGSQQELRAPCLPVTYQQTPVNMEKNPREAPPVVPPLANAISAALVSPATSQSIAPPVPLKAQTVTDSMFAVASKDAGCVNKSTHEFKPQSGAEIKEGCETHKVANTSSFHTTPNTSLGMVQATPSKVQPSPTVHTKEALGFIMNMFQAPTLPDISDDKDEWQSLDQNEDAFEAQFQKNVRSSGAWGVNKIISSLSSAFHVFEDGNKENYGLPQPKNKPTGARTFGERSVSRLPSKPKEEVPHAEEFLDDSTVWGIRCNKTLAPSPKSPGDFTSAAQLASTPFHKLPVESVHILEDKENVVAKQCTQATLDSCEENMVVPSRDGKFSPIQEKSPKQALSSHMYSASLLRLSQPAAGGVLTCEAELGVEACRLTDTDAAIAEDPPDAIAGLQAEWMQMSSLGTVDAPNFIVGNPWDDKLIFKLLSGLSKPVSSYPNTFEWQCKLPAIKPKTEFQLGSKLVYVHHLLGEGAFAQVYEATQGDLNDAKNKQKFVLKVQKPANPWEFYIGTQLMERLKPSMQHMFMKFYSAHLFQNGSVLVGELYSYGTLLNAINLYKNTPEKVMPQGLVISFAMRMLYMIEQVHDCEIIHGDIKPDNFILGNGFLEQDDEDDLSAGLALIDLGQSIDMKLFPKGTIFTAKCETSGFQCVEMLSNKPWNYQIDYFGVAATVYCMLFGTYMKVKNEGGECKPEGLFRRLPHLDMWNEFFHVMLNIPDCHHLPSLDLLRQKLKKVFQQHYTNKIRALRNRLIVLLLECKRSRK
UniProt O14920: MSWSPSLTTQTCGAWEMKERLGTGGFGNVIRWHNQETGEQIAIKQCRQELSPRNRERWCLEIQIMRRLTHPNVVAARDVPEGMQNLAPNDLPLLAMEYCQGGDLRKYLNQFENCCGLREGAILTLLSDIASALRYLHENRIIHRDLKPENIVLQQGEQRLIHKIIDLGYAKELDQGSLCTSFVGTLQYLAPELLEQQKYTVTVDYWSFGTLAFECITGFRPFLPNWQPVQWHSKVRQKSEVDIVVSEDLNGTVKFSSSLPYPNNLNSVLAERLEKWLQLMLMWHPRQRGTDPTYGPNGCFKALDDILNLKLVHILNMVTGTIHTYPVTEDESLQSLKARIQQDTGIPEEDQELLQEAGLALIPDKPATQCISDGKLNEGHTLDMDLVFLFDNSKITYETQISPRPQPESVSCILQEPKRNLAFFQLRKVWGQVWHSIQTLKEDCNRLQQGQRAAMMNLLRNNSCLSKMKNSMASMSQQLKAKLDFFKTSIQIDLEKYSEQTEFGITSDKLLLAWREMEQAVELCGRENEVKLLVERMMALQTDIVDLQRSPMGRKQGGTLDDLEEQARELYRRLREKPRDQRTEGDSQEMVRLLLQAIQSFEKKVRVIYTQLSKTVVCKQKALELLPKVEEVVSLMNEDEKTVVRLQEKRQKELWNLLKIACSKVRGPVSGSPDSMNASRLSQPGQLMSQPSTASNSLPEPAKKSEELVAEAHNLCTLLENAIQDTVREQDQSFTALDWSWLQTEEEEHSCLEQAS
UniProt P06239: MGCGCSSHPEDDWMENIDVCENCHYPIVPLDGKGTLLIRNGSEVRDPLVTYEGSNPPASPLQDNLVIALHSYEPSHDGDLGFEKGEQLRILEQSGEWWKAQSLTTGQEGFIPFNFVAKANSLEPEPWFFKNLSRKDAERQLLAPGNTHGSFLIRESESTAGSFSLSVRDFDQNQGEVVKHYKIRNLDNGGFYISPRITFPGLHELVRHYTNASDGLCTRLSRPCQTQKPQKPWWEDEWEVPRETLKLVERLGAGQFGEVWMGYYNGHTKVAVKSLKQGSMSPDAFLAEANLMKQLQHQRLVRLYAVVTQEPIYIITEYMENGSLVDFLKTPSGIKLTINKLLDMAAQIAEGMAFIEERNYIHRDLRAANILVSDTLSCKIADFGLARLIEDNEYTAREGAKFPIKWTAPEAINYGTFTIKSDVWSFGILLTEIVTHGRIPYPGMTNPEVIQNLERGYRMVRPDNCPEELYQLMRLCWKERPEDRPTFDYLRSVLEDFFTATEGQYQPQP

Columns and labels:
Assay in all cases: apparent dissociation constant pKd app (kinobead competition) (-log10(M)); higher = stronger binding
ADCK1 = biological target: T1, ADCK1 (UniProt Q86TW2)
T1 sequence (whole entry): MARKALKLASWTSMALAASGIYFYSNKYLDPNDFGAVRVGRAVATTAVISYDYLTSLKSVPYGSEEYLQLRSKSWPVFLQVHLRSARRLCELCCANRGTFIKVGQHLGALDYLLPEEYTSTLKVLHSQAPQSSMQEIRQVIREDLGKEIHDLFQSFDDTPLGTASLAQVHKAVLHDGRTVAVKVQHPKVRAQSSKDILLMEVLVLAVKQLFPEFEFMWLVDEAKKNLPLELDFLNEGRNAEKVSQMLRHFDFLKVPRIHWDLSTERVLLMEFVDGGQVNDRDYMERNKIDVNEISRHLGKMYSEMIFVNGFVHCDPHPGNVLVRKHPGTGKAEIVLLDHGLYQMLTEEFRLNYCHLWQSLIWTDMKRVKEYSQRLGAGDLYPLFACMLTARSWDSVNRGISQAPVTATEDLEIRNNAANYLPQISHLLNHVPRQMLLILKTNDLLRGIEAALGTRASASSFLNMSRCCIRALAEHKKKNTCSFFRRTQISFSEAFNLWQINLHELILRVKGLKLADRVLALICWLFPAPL

CDC2 = CDC2 (UniProt P06493)
MAP3K7 = biological target: T2, MAP3K7 (UniProt O43318)
T2 sequence (whole entry): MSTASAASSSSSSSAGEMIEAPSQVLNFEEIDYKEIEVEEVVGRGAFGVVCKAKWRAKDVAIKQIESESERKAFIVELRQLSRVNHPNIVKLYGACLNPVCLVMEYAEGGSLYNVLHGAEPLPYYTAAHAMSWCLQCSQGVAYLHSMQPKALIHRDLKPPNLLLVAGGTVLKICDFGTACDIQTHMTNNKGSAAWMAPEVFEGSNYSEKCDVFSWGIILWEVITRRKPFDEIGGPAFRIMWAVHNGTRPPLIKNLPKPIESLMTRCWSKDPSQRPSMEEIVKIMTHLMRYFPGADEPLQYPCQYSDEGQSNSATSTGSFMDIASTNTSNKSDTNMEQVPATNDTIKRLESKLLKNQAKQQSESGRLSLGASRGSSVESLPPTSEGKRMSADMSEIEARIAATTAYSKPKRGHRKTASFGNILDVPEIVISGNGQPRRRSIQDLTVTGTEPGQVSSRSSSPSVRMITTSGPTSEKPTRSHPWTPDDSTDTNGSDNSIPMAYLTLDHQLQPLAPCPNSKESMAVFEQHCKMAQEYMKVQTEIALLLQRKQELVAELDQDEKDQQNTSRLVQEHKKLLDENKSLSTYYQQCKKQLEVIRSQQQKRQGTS

MAPK8 = MAPK8 (UniProt P45983)
PAK4 = PAK4 (UniProt O96013)
CDK5 = CDK5 (UniProt Q00535)
MET = MET (UniProt P08581)
TBK1 = TBK1 (UniProt Q9UHD2)
CIT = CIT (UniProt O14578)
BUB1 = BUB1 (UniProt O43683)
IKBKB = IKBKB (UniProt O14920)
MELK = MELK (UniProt Q14680)
LCK = LCK (UniProt P06239)
EPHB1 = biological target: T3, EPHB1 (UniProt P54762)
T3 sequence (whole entry): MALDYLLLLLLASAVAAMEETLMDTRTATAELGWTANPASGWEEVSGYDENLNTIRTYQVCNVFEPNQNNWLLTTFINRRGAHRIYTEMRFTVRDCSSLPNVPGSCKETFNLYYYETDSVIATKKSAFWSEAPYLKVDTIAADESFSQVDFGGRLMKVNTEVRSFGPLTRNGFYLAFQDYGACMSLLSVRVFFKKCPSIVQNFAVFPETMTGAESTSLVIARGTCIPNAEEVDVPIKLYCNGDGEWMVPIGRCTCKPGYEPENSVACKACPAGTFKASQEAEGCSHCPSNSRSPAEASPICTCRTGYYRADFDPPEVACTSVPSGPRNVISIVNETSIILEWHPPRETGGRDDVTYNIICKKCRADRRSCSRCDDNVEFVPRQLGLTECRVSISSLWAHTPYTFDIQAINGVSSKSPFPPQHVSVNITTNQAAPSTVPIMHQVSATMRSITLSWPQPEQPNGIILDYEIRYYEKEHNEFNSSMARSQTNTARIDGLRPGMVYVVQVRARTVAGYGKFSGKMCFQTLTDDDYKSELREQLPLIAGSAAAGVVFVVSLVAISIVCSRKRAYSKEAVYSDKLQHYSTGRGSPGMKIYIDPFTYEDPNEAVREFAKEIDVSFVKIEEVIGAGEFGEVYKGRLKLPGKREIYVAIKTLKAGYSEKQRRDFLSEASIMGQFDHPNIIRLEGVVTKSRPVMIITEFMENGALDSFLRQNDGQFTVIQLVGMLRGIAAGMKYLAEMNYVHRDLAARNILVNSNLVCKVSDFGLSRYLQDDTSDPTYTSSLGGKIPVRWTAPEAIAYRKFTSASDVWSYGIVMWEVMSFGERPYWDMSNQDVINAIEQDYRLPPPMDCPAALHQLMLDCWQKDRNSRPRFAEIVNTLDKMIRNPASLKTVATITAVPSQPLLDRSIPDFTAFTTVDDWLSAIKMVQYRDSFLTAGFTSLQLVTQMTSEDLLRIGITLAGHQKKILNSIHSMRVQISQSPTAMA

| apparent dissociation constant pKd app (-log10) (ADCK1) | apparent dissociation constant pKd app (-log10) (CDC2) | apparent dissociation constant pKd app (-log10) (MAP3K7) | apparent dissociation constant pKd app (-log10) (MAPK8) | apparent dissociation constant pKd app (-log10) (PAK4) | apparent dissociation constant pKd app (-log10) (CDK5) | apparent dissociation constant pKd app (-log10) (MET) | apparent dissociation constant pKd app (-log10) (TBK1) | apparent dissociation constant pKd app (-log10) (CIT) | apparent dissociation constant pKd app (-log10) (BUB1) | apparent dissociation constant pKd app (-log10) (IKBKB) | apparent dissociation constant pKd app (-log10) (MELK) | apparent dissociation constant pKd app (-log10) (LCK) | apparent dissociation constant pKd app (-log10) (EPHB1) | SMILES |
| --- | --- | --- | --- | --- | --- | --- | --- | --- | --- | --- | --- | --- | --- | --- |
| < 4.5 | < 4.5 | < 4.5 | < 4.9 | < 4.7 | < 4.6 | < 4.7 | < 4.7 | < 4.5 | < 4.7 | < 4.5 | < 4.7 | < 4.8 | < 4.7 | O=C(c1cc(Cc2n[nH]c(=O)c3ccccc23)ccc1F)N1CCN(C(=O)C2CC2)CC1 [Olaparib] |
| 4.75 ± 0.071 | < 4.5 | < 4.5 | < 4.9 | < 4.7 | < 4.6 | < 4.7 | < 4.7 | 5.15 ± 0.071 | < 4.7 | < 4.5 | < 4.7 | < 4.8 | < 4.7 | NC(=O)c1cccc2cn(-c3ccc([C@@H]4CCCNC4)cc3)nc12 [Niraparib] |
| < 4.5 | < 4.5 | < 4.5 | < 4.9 | < 4.7 | < 4.6 | < 4.7 | < 4.7 | < 4.5 | < 4.7 | < 4.5 | < 4.7 | < 4.8 | < 4.7 | Cn1ncnc1[C@H]1c2n[nH]c(=O)c3cc(F)cc(c23)N[C@@H]1c1ccc(F)cc1 [Talazoparib] |
